This note sets out measurements from paper PMC8762078, “An ALS-associated variant of the autophagy receptor SQSTM1/p62 reprograms binding selectivity toward the autophagy-related hATG8 proteins” (The Journal of Biological Chemistry, 2021).

This assay deals with p62 WT-AIM peptide (human). Kind of assay: native MS; ESI-MS competition binding under nondenaturing conditions: each hATG8 titrated into an equimolar mixture of WT-AIM and L341V-AIM peptides (each 10 μM); read-out is the ratio of peak intensities of unbound WT and L341V peptides; ratios given for 20 μM hATG8; two independent experiments.

Take “LC3B (microtubule-associated protein 1A/1B light chain 3B) (from UniProt Q9GZQ8 1-120) (natural protein)”: the ratio of unbound WT:L341V AIM peptides at 20 μM hATG8 (reference: L341V-AIM) was determined as 0.6.
